Amino acid sequences for entries named in this document (tags omitted).
UniProt P35372, whole entry, looked up: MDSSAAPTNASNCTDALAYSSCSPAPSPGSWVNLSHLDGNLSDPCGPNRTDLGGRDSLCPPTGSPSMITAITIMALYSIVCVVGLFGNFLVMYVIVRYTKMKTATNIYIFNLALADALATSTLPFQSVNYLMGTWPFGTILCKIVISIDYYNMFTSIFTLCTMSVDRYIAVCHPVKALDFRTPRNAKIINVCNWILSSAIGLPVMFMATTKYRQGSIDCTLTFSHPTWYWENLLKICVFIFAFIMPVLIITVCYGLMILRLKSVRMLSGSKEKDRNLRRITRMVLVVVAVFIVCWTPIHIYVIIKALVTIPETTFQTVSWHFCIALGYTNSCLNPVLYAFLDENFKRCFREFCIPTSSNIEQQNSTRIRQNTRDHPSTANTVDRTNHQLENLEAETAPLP

This assay concerns the target human μ opiate receptor (Homo sapiens, UniProt P35372). Briefly: [3H]-naloxone displacement, SPA, membranes of CHO-K1 cells. Conditions: 1 μM test substance; inhibition of specific binding of 1 nmol/l [3H]-naloxone.
In the case of `Cc1cc(S(=O)(=O)N2CCCCC2CCC(=O)N2CCC(c3cccc(F)c3)(N3CCN(C)CC3)CC2)c(C)cc1Cl` (centres unmarked) [Compound 135, 3-(1-(4-chloro-2,5-dimethylphenylsulfonyl)piperidin-2-yl)-1-(4-(3-fluorophenyl)-4-(4-methylpiperazin-1-yl)piperidin-1-yl)propan-1-one], the “μ opioid receptor [1 μM] % inhibition” value was found to be 4%. To `COc1cc(C)c(S(=O)(=O)N(C)CCOCC(=O)NC2CCC(c3ccccc3)(N3CCCCC3)CC2)c(C)c1` (centres unmarked) [Compound 11, 2-(2-(4-methoxy-N,2,6-trimethylphenylsulfonamido)ethoxy)-N-(4-phenyl-4-(piperidin-1-yl)cyclohexyl)acetamide] belongs 43%; to `CN1CCN(C2(c3ccc(F)cc3)CCN(C(=O)CC(NS(=O)(=O)c3ccc4ccccc4c3)c3ccccc3)CC2)CC1` (centres unmarked) [Compound 96, N-(3-(4-(4-fluorophenyl)-4-(4-methylpiperazin-1-yl)piperidin-1-yl)-3-oxo-1-phenylpropyl)naphthalene-2-sulfonamide], 46%. To `COc1cc(C)c(S(=O)(=O)N2CCC(OCC(=O)NC3CCC(c4ccccc4)(N4CCCCC4)CC3)C2)c(C)c1` (centres unmarked) [Compound 27, 2-(1-(4-methoxy-2,6-dimethylphenylsulfonyl)pyrrolidin-3-yloxy)-N-(4-phenyl-4-(piperidin-1-yl)cyclohexyl)acetamide] belongs 27%. With `CN(CCCC1CCC(CCc2ccccc2)(N2CCCC2)CC1)C(=O)CC(NS(=O)(=O)c1ccc2ccccc2c1)c1ccccc1` (centres unmarked) [Compound 79, N-methyl-3-(naphthalene-2-sulfonamido)-N-(3-(4-phenethyl-4-(pyrrolidin-1-yl)cyclohexyl)propyl)-3-phenylpropanamide], the “μ opioid receptor [1 μM] % inhibition” value was determined as 6%. Under `COc1cc(C)c(S(=O)(=O)N2CCCC2COCC(=O)NC2CCC(Cc3ccccc3)(N3CCOCC3)CC2)c(C)c1` (centres unmarked) [Compound 159, N-(4-benzyl-4-morpholinocyclohexyl)-2-((1-(4-methoxy-2,6-dimethylphenylsulfonyl)pyrrolidin-2-yl)methoxy)acetamide] stands 37%. Under `CN(CCCC1CCC(c2ccccc2)(N2CCCC2)CC1)C(=O)COCC1CCc2ccccc2N1S(=O)(=O)c1ccc(Cl)c(Cl)c1` (centres unmarked) [Compound 133, 2-((1-(3,4-dichlorophenylsulfonyl)-1,2,3,4-tetrahydroquinolin-2-yl)methoxy)-N-methyl-N-(3-(4-phenyl-4-(pyrrolidin-1-yl)cyclohexyl)propyl)acetamide] stands 52%; under `Cc1ccccc1CC1(N(C)C)CCC(NC(=O)COCCN(C)S(=O)(=O)c2ccc(Cl)cc2Cl)CC1` (centres unmarked) [Compound 30, 2-(2-(2,4-dichloro-N-methylphenylsulfonamido)ethoxy)-N-(4-(dimethylamino)-4-(2-methylbenzyl)cyclohexyl)acetamide], 49%. To `COc1cc(C)c(S(=O)(=O)N2CCCCC2COCC(=O)N(C)CCCC2CCC(Cc3ccccc3)(N3CCCC3)CC2)c(C)c1` (centres unmarked) [Compound 88, N-(3-(4-benzyl-4-(pyrrolidin-1-yl)cyclohexyl)propyl)-2-((1-(4-methoxy-2,6-dimethylphenylsulfonyl)piperidin-2-yl)methoxy)-N-methylacetamide] belongs 14%; to `CN(C)C1(CCc2ccccc2)CCN(C(=O)CC(NS(=O)(=O)c2ccc3ccccc3c2)c2ccccc2)CC1` (centres unmarked) [Compound 105, N-(3-(4-(dimethylamino)-4-phenethylpiperidin-1-yl)-3-oxo-1-phenylpropyl)naphthalene-2-sulfonamide], 55%. In the case of `Cc1cc(S(=O)(=O)N2CCCCC2CCC(=O)N(C)CCC2CCC(c3ccccc3)(N3CCCC3)CC2)c(C)cc1Cl` (centres unmarked) [Compound 139, 3-(1-(4-chloro-2,5-dimethylphenylsulfonyl)piperidin-2-yl)-N-methyl-N-(2-(4-phenyl-4-(pyrrolidin-1-yl)cyclohexyl)ethyl)propanamide], the “μ opioid receptor [1 μM] % inhibition” value was 56%.

(Values after patent publication US20090253669A1, “Substituted Sulfonamide Compounds” (GRUENENTHAL GmbH, priority 2008, published 2009).)
